The assay has as its target C7LBDBS with a G521R mutation (Homo sapiens, UniProt P03372, G521R). Conditions: 100 nM; Hep3BL liver cells.

Amino acid sequences for entries named in this document (tags omitted). Residues count along the entry.
UniProt P03372, 258-554 G521R: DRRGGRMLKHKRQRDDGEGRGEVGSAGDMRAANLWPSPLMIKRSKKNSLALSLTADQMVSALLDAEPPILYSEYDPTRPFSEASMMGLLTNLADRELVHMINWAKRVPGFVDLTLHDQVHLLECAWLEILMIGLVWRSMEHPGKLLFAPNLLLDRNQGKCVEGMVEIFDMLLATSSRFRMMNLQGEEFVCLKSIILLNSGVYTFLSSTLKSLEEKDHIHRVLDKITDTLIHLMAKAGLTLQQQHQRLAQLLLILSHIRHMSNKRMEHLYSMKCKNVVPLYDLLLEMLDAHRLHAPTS

As for `O=C(c1ccc(OCN2CCCCC2)cc1)c1c(-c2ccc(O)cc2)sc2cc(O)ccc12` [raloxifen], the “ability to induce the regulator” value is given as “fully active”.
